Test results reported in patent US7439251B2, “Methods and compositions for treatment of central and peripheral nervous system disorders and novel compounds useful therefor” (Israel Institute for Biological Research, priority 2002, dated 2008).

Experiments:
[1] = tested on: rat pheochromocytoma cells transfected with M1 mAChR; experiment: Neurite outgrowth in rat pheochromocytoma cells transfected with M1 mAChR; format: cell-based; conditions: 24 hrs, without neurotrophins
Experimental: Rat pheochromocytoma cells transfected with M1 mAChR cells were grown as described in Gurwitz et al, (NeuroReport 6, 485, 1995). For determination of neurite outgrowth, cells plated in six-well plates were used 3-5 days after plating. Growth factors were added 1 day after plating and muscarinic agonists were added for the last 24 hrs.
Cells were observed under an inverted microscope. The percent of cells with neurite longer than cell diameter were scored in three random fields of several hundred cells from each well. Results were expressed as a percent of cells with neurites. Treatments were performed in triplicate cells. Both NGF (50 ng/ml) and EGF (100 ng/ml) were added 1 day after plating. Muscarinic agonists were added 24 hours before scoring.

[2] = tested on: rat pheochromocytoma cells transfected with the M1 mAChR
Experimental: Confluent rat pheochromocytoma cells transfected with the M1 mAChR cultures were detached with trypsin, washed and plated in 24well, 6-well, 60-mm or 100-mm plates that were precoated with rat tail collagen (Sigma, Israel). Several experiments were performed in serum-free medium. For 3-(4,5-dimethylthiazol-2-yl)-2,5-diphenyl-tetrazolium bromide (MIT) assay, cells (1.5×10^4) were plated in 96-well collagen-precoated plates, in serum-free medium, with or without various drugs for 24 hours. For differentiation, cells were grown in the presence of 1% FCS and 1% HS, with addition of 50 ng/ml NGF for 7 days, to cause full differentiation. […]
Cells were grown and treated on glass coverslips. […] Cells were washed three times with PBS, mounted in a solution of glycerol containing 22 mM 1,4 dizabicyclo(2,2,2)octane (Sigma, Israel) to prevent fading, and viewed for nuclear chromatin morphology with a fluorescence microscope. Apoptotic and viable cells were counted (200 cells per coverslip, each experiment was performed in duplicates).
The TUNEL (Terminal deoxynucleotidyl transferase (TdT) mediated dUTP nick end labeling) method enzymatically labels DNA fragments at the 3′OH ends (representing the DNA strand breaks) with fluorescein-dUPT (Boehringer Mannheim, Germany). […] Evans Blue reagent (diluted 1:2000 in PBS) was added for 5 min and the slides were viewed with fluorescence microscope. […]

[3] = tested on: rat pheochromocytoma cells transfected with the M1 mAChR; remark: listed apart in the source

C[N+](C)(C)CCOC(N)=O [carbachol, reference compound]
Maximal neurite outgrowth response (percent of cells with neurites) [1]: 80% | apoptotic death during starvation (FACS) ([2]; 24 hrs): protected cells from apoptotic death | β-amyloid increased apoptotic population (FACS) ([2]; β-Amyloid25-35 or 1-42): reduced the apoptotic population significantly | H2O2-induced toxicity [3]: protect the cells | cell death induced by β-A25-35 (MTT) [3]: significantly attenuated
